In patent US20190367516A1 (Bayer Pharma Aktiengesellschaft, priority 2015, published 2019):
Read-outs that look alike come from different tables or passages of the source. Each block holds one molecule with its values, some of them ahead of it.

Protein sequences, listed by entry. Tags and fused reporters are not part of them.
UniProt P08172, whole entry: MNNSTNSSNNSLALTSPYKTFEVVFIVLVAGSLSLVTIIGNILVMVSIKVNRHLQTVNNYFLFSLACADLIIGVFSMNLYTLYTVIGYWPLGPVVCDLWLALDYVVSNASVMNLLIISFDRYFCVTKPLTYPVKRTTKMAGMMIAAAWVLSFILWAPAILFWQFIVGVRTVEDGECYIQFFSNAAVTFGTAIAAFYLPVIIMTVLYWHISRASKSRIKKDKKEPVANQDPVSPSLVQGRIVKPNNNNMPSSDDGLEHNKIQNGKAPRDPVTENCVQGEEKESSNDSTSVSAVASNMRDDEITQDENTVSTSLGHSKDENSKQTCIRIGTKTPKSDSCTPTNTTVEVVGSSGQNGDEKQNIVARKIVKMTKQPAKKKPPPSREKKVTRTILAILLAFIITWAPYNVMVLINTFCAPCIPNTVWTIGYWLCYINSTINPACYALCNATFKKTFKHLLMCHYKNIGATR

Target: human M2 receptor (Homo sapiens, UniProt P08172)
[1] = Receptor activity EC50, M2-GIRK1/4 activation test, acetylcholine at EC20, allosteric potency, in some cases mean values from two or more determinations

EC50 (Receptor activity EC50, allosteric potency at EC20 acetylcholine, M2-GIRK1/4 reporter cells, in some cases mean of two or more determinations): 77 nM
Structure (SMILES): O=C(N[C@H](C1CC1)C(F)(F)F)c1cn(-c2c(Cl)cc(F)cc2Cl)c2nc(N3CCNC3=O)ccc2c1=O [Example 647, N-[(1R)-1-Cyclopropyl-2,2,2-trifluoroethyl]-1-(2,6-dichloro-4-fluorophenyl)-4-oxo-7-(2-oxoimidazolidin-1-yl)-1,4-dihydro-1,8-naphthyridine-3-carboxamide]

EC50 [1]: 77 nM
Structure (SMILES): CC[C@H](NC(=O)c1cn(-c2c(F)cc(F)cc2F)c2nc(N3CCN(CCO)C3=O)ccc2c1=O)C(F)(F)F [Example 362, 7-[3-(2-Hydroxyethyl)-2-oxoimidazolidin-1-yl]-4-oxo-N-[(2S)-1,1,1-trifluorobutan-2-yl]-1-(2,4,6-trifluorophenyl)-1,4-dihydro-1,8-naphthyridine-3-carboxamide]

Second part, the molecule before the results:

Structure (SMILES): CN(C)c1ccc2c(=O)c(C(=O)NCc3c(Cl)cccc3C(F)(F)F)cn(-c3ccc(F)cc3F)c2n1 [Example 58, N-[2-Chloro-6-(trifluoromethyl)benzyl]-1-(2,4-difluorophenyl)-7-(dimethylamino)-4-oxo-1,4-dihydro-l,8-naphthyridine-3-carboxamide]
EC50 [1]: 77 nM

Structure (SMILES): O=C(NC12CC3CC(CC(C3)C1)C2)c1cn(-c2ccc(F)cc2F)c2nc(N3CCC[C@@H]3CO)ccc2c1=O (racemic) [Example 127, rac-1-(2,4-Difluorophenyl)-7-[2-(hydroxymethyl)pyrrolidin-1-yl]-4-oxo-N-(tricyclo[3.3.1.1^3,7]dec-1-yl)-1,4-dihydro-1,8-naphthyridine-3-carboxamide]
EC50 [1]: 77 nM

Structure (SMILES): CC[C@@H](NC(=O)c1cn(-c2c(F)cccc2F)c2nc(N3CCC(C)(O)C3)ccc2c1=O)C(F)(F)F (single isomer, unassigned) [Example 278]
EC50 [1]: 77 nM
